Screens deposited in PubChem BioAssay by National Center for Advancing Translational Sciences (NCATS).
A selection: hits, their analogues and other compounds. The true share with any hit is near 3.7%.
ClpP mod = qHTS Assay for Activators of ClpP. purified B. subtilis ClpP, FRET peptide cleavage, 20 min. hit rate 1.9% among 340,000. ATP-dependent Clp protease proteolytic subunit (Bacillus subtilis (strain 168)), P80244. AID 651965, 2013. Potency, µM (series often up to 57.5 µM), for inactives: top-dose activity change, negative = active; active means well fitted falling curve with a large enough effect; inconclusive means small, poorly fitted or top-dose-only effect; inactive means no such curve, though single readings can be large or run the other way; further: potency means the concentration at half of the fitted maximal effect; the source files actives as falling curves though it sought activators and does not explain the sign; nearly all actives have a fitted effect of over 65% in size
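FRET quenching reversal measured ClpP activation: 10 microg/mL B. subtilis ClpP at pH 8 with the FRET-FV decapeptide, read at 430 nm after 320 nm excitation. The 20-min minus 0-min signal was scaled between DMSO/no-enzyme wells and ADEP (5.8 microM final).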
A549 viability = kills or reduces viability of A549 cells in Nrf2 counter-screen. Potency, µM (highest dose often 46 µM), for the others: at the top dose activity change, negative = cytotoxicity, actives largely listed as inhibitors. A549 ARE-Fluc cells, CellTiter-Fluor viability, 18-24 h. hit rate 0.16% among 390,000; further: potency means the concentration at half of the fitted maximal effect; on the % scale 0 is the no-effect control and ±100 the full control effect
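A549 ARE_Fluc cells in 5% FBS OPTI-MEM were exposed to compounds in concentration-response for 18-24 h at 37 deg C. Viability was read by CellTiter-Fluor fluorescence (Ex 405/Em 525) after 30 min, before the luciferase read.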
p53 reactivator = re-activators of mutant p53 | hit rate 0.063% among 320,000 | H1299 p53-A138V BP100-luciferase reporter, luminescence, 24 h | Potency, µM (series often up to 92.2 µM), for the others: top-dose activity change, positive = activation, usual class: activators; further: potency means the concentration at half of the fitted maximal effect; % of control where 0% means no effect; nearly all actives have a fitted effect of over 45% in size
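p53-null H1299 cells stably carrying temperature-sensitive p53-A138V and a BP100-luciferase reporter were pinned with compounds (4-point, 1:5 series) and held 24 hrs at 37 deg C. Luminescence was read 10 min after detection reagent.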
Nrf2 block = Nrf2 pathway inhibition. A549 ARE-Fluc reporter, luciferase luminescence, 18-24 h. Potency, µM (series often up to 46 µM), for inactives: at the highest dose activity change, negative = inhibition, usual class: inhibitors. hit rate 2.1% among 360,000. AID 504444; further: potency means the concentration at half of the fitted maximal effect; on the % scale 0 is the no-effect control and ±100 the full control effect; nearly all actives have a fitted effect of over 60% in size
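Nrf2 function is reported as luminescence of an ARE-controlled luciferase in A549 cells. Compounds were tested at several concentrations, and a CellTiter-Fluor read on the same wells flagged cytotoxicity.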
Nrf2 activator = Nrf2 pathway activation. AREc32 ARE-luciferase reporter (MCF7-derived line), luminescence, 24 h. Potency, µM (top dose mostly 46.1 µM), inactives show at the highest dose activation, usual class: activators. hit rate 0.31% among 410,000. AID 624171; further: potency means the concentration at half of the fitted maximal effect; % of control where 0% means no effect; nearly all actives have a fitted effect of over 65% in size
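Steps: seed AREc32_Fluc cells (1000/well, 5% FBS OPTI-MEM); incubate overnight at 37 deg C; add 23 nL compound; incubate 24 hr; add Steady-Glo; hold 30 min RT; read luminescence.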
miR-21 FLuc = miR-21 reporter, rising signal | 340,000 tested, under 10 active | AID 2288 | HeLa miR-21 FLuc reporter, luciferase, 48 h | Potency, µM (titrated, usually from 38.3 µM), for inactives: at the highest dose reporter change, positive = more light; active = well fitted rising curve with a large enough effect; inconclusive = small, poorly fitted or top-dose-only effect; inactive = no such curve, though single readings can be large or run the other way;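 further: % of control where 0% means no effect; miR-21 action dims this reporter so a rising signal means less miR-21 action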
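Luminescence from a firefly luciferase reporter carrying a miR-21 binding site downstream, stably expressed under a CMV promoter in HeLa cells that make miR-21 endogenously, reports miRNA modulation after 48 h compound exposure up to approximately 40uM final.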
Starred values were filed as active, the others as inactive; u = inconclusive; x = not tested or not shown; ! = repeats disagree. Unless noted, the call rests on the fitted dose curve; in most records, active means well fitted curve in the direction sought with a large enough effect; inconclusive means small, poorly fitted or top-dose-only effect, or another doubt; inactive means no such curve, though single readings can be large; an effect the other way counts as inactive or inconclusive.

Protein sequences, listed by entry. Tags and fused reporters are not part of them.
ATP-dependent Clp protease proteolytic subunit (Bacillus subtilis (strain 168)), P80244, UniProt P80244, whole entry, looked up: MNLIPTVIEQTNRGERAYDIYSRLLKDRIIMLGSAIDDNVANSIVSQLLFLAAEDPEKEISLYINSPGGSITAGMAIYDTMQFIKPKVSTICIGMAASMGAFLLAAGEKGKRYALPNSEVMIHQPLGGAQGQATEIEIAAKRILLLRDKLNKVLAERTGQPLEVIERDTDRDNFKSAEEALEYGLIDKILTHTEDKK

| molecule | ClpP mod | A549 viability | p53 reactivator | Nrf2 block | Nrf2 activator | miR-21 FLuc |
| --- | --- | --- | --- | --- | --- | --- |
| Clc1ccc(CNc2ncnc3[nH]ncc23)c(Cl)c1 | x | -14% | x | 23µM* | 0% | x |
| CC(=O)N1CCc2cc(S(=O)(=O)NC(CC(C)C)C(=O)NCCc3ccccc3)ccc21 (stereo not given) | 0% | -3% | x | 3% | -1% | 0% |
| O=C(Cn1c(=O)c2cc(Cl)ccc2n2nncc12)Nc1ccccc1 | -5% | -4% | x | 3% | 0% | 4% |
| Nc1c(C(=O)Nc2ccc(OC(F)(F)F)cc2)sc2nc(-c3ccncc3)ccc12 | -2% | -4% | x | 6.5µM* | 6% | -1% |
| Cc1ccc(-n2nc3c(=O)n(C(C)C(=O)NCCCc4ccccc4)nc(C)c3c2C)cc1 (stereo not given) | -4% | 21µM* | 0% | 10µM* | 0% | 24% |
| CCC(C(=O)NCc1cccc(C)c1)n1nc(C)c2c(C)n(-c3ccccc3)nc2c1=O (stereo not given) | -1% | -14% | -4% | 21µM* | 0% | 4% |
| CCC(C(=O)NCc1cccc(Br)c1)n1nc(C)c2c(C)n(-c3ccccc3)nc2c1=O (stereo not given) | -2% | -2% | x | u | 1% | 20% |
| Cc1ccc(-n2nc3c(=O)n(C(C)C(=O)NCc4ccco4)nc(C)c3c2C)cc1 (stereo not given) | -5% | 8% | -4% | -2% | 4% | 2% |
| Cc1ccc(-n2nc3c(=O)n(C(C)C(=O)NCc4ccccc4Cl)nc(C)c3c2C)cc1 (stereo not given) | 2% | -16% | -3% | 15µM* | 0% | 24% |
| CC(=O)c1cccc(-c2ccnc3c2CC(C(=O)Nc2ccc(Cl)c(C(F)(F)F)c2)O3)c1 (stereo not given) | 0% | x | x | x | 0% | x |
| CCc1ccccc1NC(=O)CSc1nc2n[nH]c(C)c2c(=N)n1-c1cccc(OC)c1 | -6% | u | -1% | 18µM* | 7% | 15% |
| COc1ccc(OC)c(NC(=O)CSc2nc3n[nH]c(C)c3c(=N)n2-c2cccc(Cl)c2C)c1 | x | u | -11% | 16µM* | 5% | 3% |
| CCCCOc1ccc(C(=O)Nc2ccc3c(c2)N(C(C)=O)CCC3)cc1 | -9% | -10% | x | x | -4% | 4% |
| Cc1ccc2ncnc(-c3ccccc3)c2c1 | -1% | -1% | 3% | -24% | -1% | -2% |
| c1ccc(-c2ncnc3cc4n(c23)CCC4)cc1 | 28µM* | 1% | -6% | -23% | -1% | -17% |
| O=C(CSc1nnc(-c2cccnc2)o1)c1cc2ccccc2oc1=O | -15% | -1% | 18% | x | 7.1µM* | -10% |
| O=C(CSc1nnc(-c2cccnc2)o1)Oc1ccccc1 | -2% | -1% | 4% | -26% | 0% | 0% |
| CCOC(=O)c1nn(-c2ccccc2)c(C(=O)OCC)c1N | 2µM* | u | -5% | 2% | -1% | -2% |
| CCOC(=O)c1c(C)nc2c(c(SC)nn2-c2ccccc2)c1N | 25µM* | 11% | 1% | -15% | 0% | 2% |
| CCc1ccc(-c2nc3ccc(Br)cc3c(C(=O)O)c2C)s1 | 25µM*! | -8% | 3% | 4% | 0% | 5% |

The listing continues.
| molecule | ClpP mod | A549 viability | p53 reactivator | Nrf2 block | Nrf2 activator | miR-21 FLuc |
| --- | --- | --- | --- | --- | --- | --- |
| COC(=O)c1cc2oc3ccccc3c2n1CC(=O)N1CCCc2ccccc21 | 8.9µM* | 5% | -6% | -24% | 0% | 0% |
| CCc1nc(SCC(=O)N2CCCc3ccccc32)c2oc3ccccc3c2n1 | -9% | u | 5% | 16µM* | -1% | 17% |
| COC(=O)c1cc2ccsc2n1CC(=O)N1CCCc2ccccc21 | -1% | -7% | -5% | 1% | 3% | -1% |
| O=C(C[n+]1ccnc2ccccc21)c1ccc(Br)cc1 | 1% | x | x | x | x | x |
| CC(C)c1nc(N2CCN(C(=O)c3ccco3)CC2)c(C#N)c2c1COC(C)(C)C2 | x | -15% | -2% | u | 6% | 14% |
| CC(C)c1nc(N2CCN(C(=O)c3ccccc3)CC2)c(C#N)c2c1COC(C)(C)C2 | 28µM* | -19% | 4% | u | 0% | -2% |
| CCCCc1nc(NCC2CCCO2)c(C#N)c2c1COC(C)(C)C2 (stereo not given) | 7.9µM* | 1% | 0% | -6% | -1% | -2% |
| CC1(C)Cc2c(C#N)c(SCCO)nc(N3CCOCC3)c2CO1 | -2% | -4% | -2% | -24% | -1% | -7% |
| CCCCc1nc(N2CCOCC2)c(C#N)c2c1COC(C)(C)C2 | 28µM* | -5% | 25% | -7% | 0% | -2% |
| CC(=O)Nc1ccccc1OC1=N[S+](=O)([O-])c2ccccc21 | x | 10% | x | 11% | x | x |
| O=C(C[n+]1csc2ccccc21)c1cccc([N+](=O)[O-])c1 | -4% | x | x | x | x | x |
| Cc1cc(=O)n2nc(N(C)CC(=O)NCc3cccc(Br)c3)sc2n1 | 2% | 5% | x | 12% | -1% | -6% |
| CC1=CC(C)(C)N2C(=O)C3(NCCc4c3[nH]c3ccccc43)c3cc(C)cc1c32 (stereo not given) | 0% | 12µM* | 2% | u | 3% | 18% |
| Cc1cc2n(n1)C(c1ccc3c(c1)OCO3)Nc1c(C)cccc1-2 (stereo not given) | -2% | -15% | -10% | -12% | 0% | 2% |
| Cc1cc(C)c2c(c1)-c1cc(C)nn1C(c1ccc3c(c1)OCO3)N2 (stereo not given) | 32µM* | -6% | -1% | -7% | 0% | -6% |
| COc1ccc(NC(=O)c2nn(C)c3c2CS(=O)(=O)c2ccccc2-3)cc1Cl | -10% | 0% | x | u | 0% | 7% |
| c1ccc(Cn2nnnc2C(c2ccncc2)N2CCOCC2)cc1 (stereo not given) | 0% | 1% | -1% | 8% | 1% | -1% |
| Cc1cc(C(c2nnnn2Cc2ccccc2)N2CCOCC2)c(C)n1-c1ccc2c(c1)OCO2 (stereo not given) | -2% | -3% | 32µM* | u | u | -1% |
| COc1ccc(-c2noc(N3CCN(c4cccc(Cl)c4)CC3)n2)cc1OC | -3% | -5% | x | 23µM* | 0% | 2% |
| COc1ccc(-c2noc(-c3ccc(Cl)cc3[N+](=O)[O-])n2)cc1OC | 28µM* | 5% | u | u | 6% | -22% |
| COc1ccc(-c2noc(N3CCN(c4ccc(Cl)cc4)CC3)n2)cc1OC | 0% | 1% | x | u | 0% | -2% |
| Cc1cccc(-c2noc(-c3ccc(Cl)cc3[N+](=O)[O-])n2)c1 | -1% | 15% | u | u | 3% | -62% |

Copied from the list.
Value for CCCCc1nc(N2CCOCC2)c(C#N)c2c1COC(C)(C)C2 under A549 viability: -5%
Value for COc1ccc(-c2noc(-c3ccc(Cl)cc3[N+](=O)[O-])n2)cc1OC under ClpP mod: 28µM*

Profiles, quoted from the list.
COC(=O)c1cc2ccsc2n1CC(=O)N1CCCc2ccccc21 is listed as ClpP mod = -1%; A549 viability = -7%; p53 reactivator = -5%; Nrf2 block = 1%; Nrf2 activator = 3%; miR-21 FLuc = -1%
CC(C)c1nc(N2CCN(C(=O)c3ccco3)CC2)c(C#N)c2c1COC(C)(C)C2 is listed as ClpP mod = x; A549 viability = -15%; p53 reactivator = -2%; Nrf2 block = u; Nrf2 activator = 6%; miR-21 FLuc = 14%
